In patent US12171806B2, “Therapeutic regimens and methods for lowering blood glucose and/or body weight using GLP-1R and GCGR balanced agonists” (priority 2021, dated 2024):

Experiment: Phase 1 MAD study of ALT-801: adverse events (TEAEs), safety overview
Conditions: M1 1.2 mg ALT-801 (N = 7)

CC[C@H](C)[C@H](NC(=O)[C@H](Cc1ccccc1)NC(=O)[C@H](CCC(=O)O)NC(=O)[C@@H]1CCCCNC(=O)CC[C@H](NC(=O)[C@H](CC(=O)O)NC(=O)[C@H](CC(C)C)NC(=O)[C@H](Cc2ccc(O)cc2)NC(=O)[C@H](CCCCN)NC(=O)[C@H](CO)NC(=O)[C@H](Cc2ccc(O)cc2)NC(=O)[C@H](CC(=O)O)NC(=O)[C@H](CO)NC(=O)[C@@H](NC(=O)[C@H](Cc2ccccc2)NC(=O)[C@@H](NC(=O)CNC(=O)[C@H](CCC(N)=O)NC(=O)C(C)(C)NC(=O)[C@@H](N)Cc2c[nH]cn2)[C@@H](C)O)[C@@H](C)O)C(=O)N[C@@H](CCCCNC(=O)[C@H]2O[C@@H](OCCCCCCCCCCCCCCCCCC(=O)O)[C@H](O)[C@@H](O)[C@@H]2O)C(=O)N[C@@H](C)C(=O)N[C@@H](C)C(=O)N1)C(=O)N[C@@H](CCC(N)=O)C(=O)N[C@@H](Cc1c[nH]c2ccccc12)C(=O)N[C@@H](CC(C)C)C(=O)N[C@@H](CC(C)C)C(=O)N[C@@H](CCC(N)=O)C(=O)N[C@H](C(N)=O)[C@@H](C)O [ALT-801, pemvidutide]
TEAE Cough, maximum severity Mild, subjects n: 0 | TEAE Cough, maximum severity Moderate, subjects %: (0.0%) | TEAE Cough, maximum severity Moderate, subjects n: 0 | TEAE Cough, maximum severity PLT, subjects %: (0.0%) | TEAE Cough, maximum severity PLT, subjects n: 0 | TEAE Cough, maximum severity Severe, subjects %: (0.0%) | TEAE Cough, maximum severity Severe, subjects n: 0 | TEAE Dermatitis contact, maximum severity Mild, subjects %: (14.3%) | TEAE Dermatitis contact, maximum severity Mild, subjects n: 1 | TEAE Dermatitis contact, maximum severity Moderate, subjects %: (0.0%) | TEAE Dermatitis contact, maximum severity Moderate, subjects n: 0 | TEAE Dermatitis contact, maximum severity PLT, subjects %: (0.0%) | TEAE Dermatitis contact, maximum severity PLT, subjects n: 0 | TEAE Dermatitis contact, maximum severity Severe, subjects %: (0.0%) | TEAE Dermatitis contact, maximum severity Severe, subjects n: 0 | TEAE Eczema, maximum severity Mild, subjects %: (0.0%) | TEAE Eczema, maximum severity Mild, subjects n: 0 | TEAE Eczema, maximum severity Moderate, subjects %: (0.0%) | TEAE Eczema, maximum severity Moderate, subjects n: 0 | TEAE Eczema, maximum severity PLT, subjects %: (0.0%) | TEAE Eczema, maximum severity PLT, subjects n: 0 | TEAE Eczema, maximum severity Severe, subjects %: (0.0%) | TEAE Eczema, maximum severity Severe, subjects n: 0 | TEAE Hot flush, maximum severity Mild, subjects %: (0.0%) | TEAE Hot flush, maximum severity Mild, subjects n: 0 | TEAE Hot flush, maximum severity Moderate, subjects %: (0.0%) | TEAE Hot flush, maximum severity Moderate, subjects n: 0 | TEAE Hot flush, maximum severity PLT, subjects %: (0.0%) | TEAE Hot flush, maximum severity PLT, subjects n: 0 | TEAE Hot flush, maximum severity Severe, subjects %: (0.0%) | TEAE Hot flush, maximum severity Severe, subjects n: 0 | TEAE Menorrhagia, maximum severity PLT, subjects %: (0.0%) | TEAE Menorrhagia, maximum severity PLT, subjects n: 0 | TEAE Oropharyngeal pain, maximum severity Mild, subjects %: (0.0%) | TEAE Oropharyngeal pain, maximum severity Mild, subjects n: 0 | TEAE Oropharyngeal pain, maximum severity Moderate, subjects %: (0.0%) | TEAE Oropharyngeal pain, maximum severity Moderate, subjects n: 0 | TEAE Oropharyngeal pain, maximum severity PLT, subjects %: (0.0%) | TEAE Oropharyngeal pain, maximum severity PLT, subjects n: 0 | TEAE Oropharyngeal pain, maximum severity Severe, subjects %: (0.0%) | TEAE Oropharyngeal pain, maximum severity Severe, subjects n: 0 | TEAE Papule, maximum severity Mild, subjects %: (14.3%) | TEAE Papule, maximum severity Mild, subjects n: 1 | TEAE Papule, maximum severity Moderate, subjects %: (0.0%) | TEAE Papule, maximum severity Moderate, subjects n: 0 | TEAE Papule, maximum severity PLT, subjects %: (0.0%) | TEAE Papule, maximum severity PLT, subjects n: 0 | TEAE Papule, maximum severity Severe, subjects %: (0.0%) | TEAE Papule, maximum severity Severe, subjects n: 0 | TEAE Pruritus, maximum severity Mild, subjects %: (0.0%) | TEAE Pruritus, maximum severity Mild, subjects n: 0 | TEAE Pruritus, maximum severity Moderate, subjects %: (0.0%) | TEAE Pruritus, maximum severity Moderate, subjects n: 0 | TEAE Pruritus, maximum severity PLT, subjects %: (0.0%) | TEAE Pruritus, maximum severity PLT, subjects n: 0 | TEAE Pruritus, maximum severity Severe, subjects %: (0.0%) | TEAE Pruritus, maximum severity Severe, subjects n: 0 | TEAE Rash, maximum severity Mild, subjects %: (0.0%) | TEAE Rash, maximum severity Mild, subjects n: 0 | TEAE Rash, maximum severity Moderate, subjects %: (0.0%) | TEAE Rash, maximum severity Moderate, subjects n: 0 | TEAE Rash, maximum severity PLT, subjects %: (0.0%) | TEAE Rash, maximum severity PLT, subjects n: 0 | TEAE Rash, maximum severity Severe, subjects %: (0.0%) | TEAE Rash, maximum severity Severe, subjects n: 0 | TEAE Respiratory, thoracic and mediastinal disorders, maximum severity Mild, subjects %: (0.0%) | TEAE Respiratory, thoracic and mediastinal disorders, maximum severity Mild, subjects n: 0 | TEAE Respiratory, thoracic and mediastinal disorders, maximum severity Moderate, subjects %: (0.0%) | TEAE Respiratory, thoracic and mediastinal disorders, maximum severity Moderate, subjects n: 0 | TEAE Respiratory, thoracic and mediastinal disorders, maximum severity PLT, subjects %: (0.0%) | TEAE Respiratory, thoracic and mediastinal disorders, maximum severity PLT, subjects n: 0 | TEAE Respiratory, thoracic and mediastinal disorders, maximum severity Severe, subjects %: (0.0%) | TEAE Respiratory, thoracic and mediastinal disorders, maximum severity Severe, subjects n: 0 | TEAE Skin and subcutaneous tissue disorders, maximum severity Mild, subjects %: (28.6%) | TEAE Skin and subcutaneous tissue disorders, maximum severity Mild, subjects n: 2 | TEAE Skin and subcutaneous tissue disorders, maximum severity Moderate, subjects %: (0.0%) | TEAE Skin and subcutaneous tissue disorders, maximum severity Moderate, subjects n: 0 | TEAE Skin and subcutaneous tissue disorders, maximum severity PLT, subjects %: (0.0%) | TEAE Skin and subcutaneous tissue disorders, maximum severity PLT, subjects n: 0 | TEAE Skin and subcutaneous tissue disorders, maximum severity Severe, subjects %: (0.0%) | TEAE Skin and subcutaneous tissue disorders, maximum severity Severe, subjects n: 0 | TEAE Skin lesion, maximum severity Mild, subjects %: (0.0%) | TEAE Skin lesion, maximum severity Mild, subjects n: 0 | TEAE Skin lesion, maximum severity Moderate, subjects %: (0.0%) | TEAE Skin lesion, maximum severity Moderate, subjects n: 0 | TEAE Skin lesion, maximum severity PLT, subjects %: (0.0%) | TEAE Skin lesion, maximum severity PLT, subjects n: 0 | TEAE Skin lesion, maximum severity Severe, subjects %: (0.0%) | TEAE Skin lesion, maximum severity Severe, subjects n: 0 | TEAE Vascular disorders, maximum severity Mild, subjects %: (0.0%)
